Chains of the proteins cited; added tags and fusions are not shown. Residues count along the entry.
UniProt P08253, 110-660: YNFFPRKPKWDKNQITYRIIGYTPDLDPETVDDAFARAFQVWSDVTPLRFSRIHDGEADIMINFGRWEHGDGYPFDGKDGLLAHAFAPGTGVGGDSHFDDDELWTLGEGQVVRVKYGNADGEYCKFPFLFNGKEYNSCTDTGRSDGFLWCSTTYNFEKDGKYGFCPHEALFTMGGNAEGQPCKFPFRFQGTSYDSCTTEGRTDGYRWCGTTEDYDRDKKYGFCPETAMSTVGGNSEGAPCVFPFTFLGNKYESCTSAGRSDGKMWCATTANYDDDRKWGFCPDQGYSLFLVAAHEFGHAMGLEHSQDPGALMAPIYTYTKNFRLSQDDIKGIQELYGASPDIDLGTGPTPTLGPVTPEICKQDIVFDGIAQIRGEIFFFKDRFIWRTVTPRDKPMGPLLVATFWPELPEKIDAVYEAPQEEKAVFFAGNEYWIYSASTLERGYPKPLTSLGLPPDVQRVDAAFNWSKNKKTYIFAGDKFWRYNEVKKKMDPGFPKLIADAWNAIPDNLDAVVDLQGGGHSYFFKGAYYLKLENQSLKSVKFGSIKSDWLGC
UniProt Q9UNA0, 262-930: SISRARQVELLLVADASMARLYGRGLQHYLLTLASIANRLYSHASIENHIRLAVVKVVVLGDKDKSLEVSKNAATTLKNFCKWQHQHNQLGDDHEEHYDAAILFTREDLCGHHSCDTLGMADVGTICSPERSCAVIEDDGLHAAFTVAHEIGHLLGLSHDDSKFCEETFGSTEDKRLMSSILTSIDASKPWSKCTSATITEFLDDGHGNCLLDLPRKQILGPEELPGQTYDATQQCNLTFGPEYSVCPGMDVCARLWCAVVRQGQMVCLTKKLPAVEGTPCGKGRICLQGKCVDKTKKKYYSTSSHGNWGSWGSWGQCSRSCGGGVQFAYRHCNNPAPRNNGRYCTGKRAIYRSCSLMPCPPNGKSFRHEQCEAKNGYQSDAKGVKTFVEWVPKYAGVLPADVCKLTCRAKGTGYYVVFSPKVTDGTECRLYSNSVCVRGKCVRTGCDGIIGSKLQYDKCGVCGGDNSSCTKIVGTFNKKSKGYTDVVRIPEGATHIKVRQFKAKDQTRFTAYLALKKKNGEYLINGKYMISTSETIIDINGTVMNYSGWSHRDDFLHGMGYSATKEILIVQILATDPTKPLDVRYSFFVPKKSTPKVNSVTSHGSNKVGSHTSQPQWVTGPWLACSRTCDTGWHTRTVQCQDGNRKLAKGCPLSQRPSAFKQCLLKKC
UniProt Q6TY19, 24-928 limits assumed: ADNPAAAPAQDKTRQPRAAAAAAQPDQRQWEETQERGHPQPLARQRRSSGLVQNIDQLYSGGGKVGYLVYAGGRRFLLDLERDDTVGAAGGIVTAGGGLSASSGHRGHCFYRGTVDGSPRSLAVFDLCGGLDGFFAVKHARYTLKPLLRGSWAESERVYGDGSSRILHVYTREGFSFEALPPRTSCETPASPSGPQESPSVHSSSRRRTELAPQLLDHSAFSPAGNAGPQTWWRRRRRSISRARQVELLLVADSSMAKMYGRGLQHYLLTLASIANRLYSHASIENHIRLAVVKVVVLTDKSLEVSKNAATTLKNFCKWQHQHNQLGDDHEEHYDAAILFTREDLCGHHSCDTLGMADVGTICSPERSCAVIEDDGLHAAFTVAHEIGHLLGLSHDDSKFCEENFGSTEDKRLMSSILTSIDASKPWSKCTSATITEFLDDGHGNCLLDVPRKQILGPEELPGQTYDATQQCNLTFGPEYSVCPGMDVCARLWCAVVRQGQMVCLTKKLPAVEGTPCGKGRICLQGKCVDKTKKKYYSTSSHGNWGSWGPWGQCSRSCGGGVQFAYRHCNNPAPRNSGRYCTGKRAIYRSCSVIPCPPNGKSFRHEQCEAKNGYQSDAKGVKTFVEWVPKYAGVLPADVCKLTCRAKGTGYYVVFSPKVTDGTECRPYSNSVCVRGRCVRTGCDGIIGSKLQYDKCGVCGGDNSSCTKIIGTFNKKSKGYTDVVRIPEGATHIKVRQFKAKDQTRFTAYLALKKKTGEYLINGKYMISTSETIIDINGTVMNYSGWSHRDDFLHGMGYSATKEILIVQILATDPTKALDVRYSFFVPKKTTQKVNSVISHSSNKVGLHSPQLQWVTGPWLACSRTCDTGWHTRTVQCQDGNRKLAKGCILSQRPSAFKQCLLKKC
UniProt P78536, whole entry, looked up, stated change not applied: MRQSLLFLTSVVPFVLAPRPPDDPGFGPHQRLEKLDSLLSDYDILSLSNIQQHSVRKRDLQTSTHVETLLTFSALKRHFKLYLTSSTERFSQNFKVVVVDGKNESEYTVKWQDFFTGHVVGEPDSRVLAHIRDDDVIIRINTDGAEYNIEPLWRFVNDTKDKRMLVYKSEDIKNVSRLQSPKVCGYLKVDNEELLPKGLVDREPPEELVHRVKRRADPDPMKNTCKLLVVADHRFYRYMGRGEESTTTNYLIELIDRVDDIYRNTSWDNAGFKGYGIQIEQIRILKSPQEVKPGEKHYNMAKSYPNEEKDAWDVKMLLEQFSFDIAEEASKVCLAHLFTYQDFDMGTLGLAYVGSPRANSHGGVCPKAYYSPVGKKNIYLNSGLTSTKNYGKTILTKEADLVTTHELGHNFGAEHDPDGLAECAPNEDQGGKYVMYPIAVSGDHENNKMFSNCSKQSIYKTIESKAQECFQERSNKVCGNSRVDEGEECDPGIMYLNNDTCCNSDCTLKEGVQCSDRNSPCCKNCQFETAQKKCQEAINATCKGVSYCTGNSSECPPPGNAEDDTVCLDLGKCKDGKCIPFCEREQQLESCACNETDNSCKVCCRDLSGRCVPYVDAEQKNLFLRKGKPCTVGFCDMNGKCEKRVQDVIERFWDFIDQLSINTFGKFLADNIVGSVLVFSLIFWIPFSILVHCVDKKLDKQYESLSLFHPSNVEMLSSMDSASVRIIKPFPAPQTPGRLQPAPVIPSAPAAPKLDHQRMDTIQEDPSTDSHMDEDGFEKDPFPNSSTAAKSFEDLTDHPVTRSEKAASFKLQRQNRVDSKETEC

According to patent publication US9926281B2 (priority 2014, dated 2018):

Key:
[1] = biological target: human MMP2 (Homo sapiens (Human), UniProt P08253); settings: read-out: hMMP-2 potency IC50
[2] = biological target: T1, human ADAMTS-5 (Homo sapiens (Human), UniProt Q9UNA0); settings: read-out: hADAMTS-5 potency IC50
[3] = biological target: T1, human ADAMTS-5; settings: read-out: hADAMTS-5 potency IC50; remark: listed apart in the source
[4] = biological target: rnADAMTS-5 (1-564-6H) (Rattus norvegicus, UniProt Q6TY19); settings: read-out: Rat ADAMTS-5 potency IC50
[5] = biological target: human TACE (Homo sapiens (Human), UniProt P78536); settings: read-out: TACE potency IC50

SMILES	IC50 [1]	other results
CN(C)CCC1(CCC(=O)N2CCN(c3cccc(Cl)c3)CC2)NC(=O)NC1=O (stereo not drawn) [compound 44, 5-[3-[4-(3-chlorophenyl)piperazin-1-yl]-3-oxo-propyl]-5-(2-dimethylaminoethyl)imidazolidine-2,4-dione]	2950 nM	
O=C1NC(=O)C(CCC(=O)N2CCN(c3cccc(Cl)c3)CC2)(c2ccccc2)N1 (stereo not drawn) [compound 6, 5-[3-[4-(3-chlorophenyl)piperazin-1-yl]-3-oxo-propyl]-5-phenyl-imidazolidine-2,4-dione]	379 nM	
O=C1NC(=O)C(CCC(=O)N2CCN(c3ccccc3Cl)CC2)(c2ccccc2)N1 (stereo not drawn) [compound 20, 5-[3-[4-(2-chlorophenyl)piperazin-1-yl]-3-oxo-propyl]-5-phenyl-imidazolidine-2,4-dione]	> 20000 nM	
O=C1NC(=O)C(CCC(=O)N2CCN(c3ccc4cnccc4c3)CC2)(c2ccccc2)N1 (stereo not drawn) [compound 14, 5-[3-[4-(6-isoquinolyl)piperazin-1-yl]-3-oxo-propyl]-5-phenyl-imidazolidine-2,4-dione]	38 nM	
Cc1cccc(N2CCN(C(=O)CCC3(c4ccccc4)NC(=O)NC3=O)CC2)c1C (stereo not drawn) [compound 8, 5-[3-[4-(2,3-dimethylphenyl)piperazin-1-yl]-3-oxo-propyl]-5-phenyl-imidazolidine-2,4-dione]	> 16700 nM	
C[C@H]1CN(C(=O)CCC2(C3CC3)NC(=O)NC2=O)CCN1c1ccc2ncsc2c1 (stereo partly drawn) [compound 305, 5-[3-[(3S)-4-(1,3-benzothiazol-6-yl)-3-methyl-piperazin-1-yl]-3-oxo-propyl]-5-cyclopropyl-imidazolidine-2,4-dione]		IC50 [2]: 674 nM
CN(C)Cc1ccc(C2(CCC(=O)N3CCN(c4cccc(Cl)c4)CC3)NC(=O)NC2=O)cc1 (stereo not drawn) [compound 83, 5-[3-[4-(3-chlorophenyl)piperazin-1-yl]-3-oxo-propyl]-5-[4-(dimethylaminomethyl)phenyl]imidazolidine-2,4-dione]		IC50 [3]: 423 nM; IC50 [4]: 436 nM
Cc1ccccc1N1CCN(C(=O)CCC2(C(C)C)NC(=O)NC2=O)CC1 (stereo not drawn) [compound 32, 5-isopropyl-5-[3-[4-(o-tolyl)piperazin-1-yl]-3-oxo-propyl]imidazolidine-2,4-dione]	> 20000 nM	
CC(CC1(c2ccccn2)NC(=O)NC1=O)C(=O)N1CCN(c2ccc(F)c(Cl)c2)[C@@H](C)C1 (stereo partly drawn) [compound 437, 5-(3-((S)-4-(3-chloro-4-fluorophenyl)-3-methylpiperazin-1-yl)-2-methyl-3-oxopropyl)-5-(pyridin-2-yl)imidazolidine-2,4-dione]		IC50 [5]: 2130 nM
Cc1ccc(Cl)cc1N1CCN(C(=O)CCC2(c3ccccc3)NC(=O)NC2=O)CC1 (stereo not drawn) [compound 24, 5-[3-[4-(5-chloro-2-methyl-phenyl)piperazin-1-yl]-3-oxo-propyl]-5-phenyl-imidazolidine-2,4-dione]	> 20000 nM	
Cc1c(Cl)cccc1N1CCN(C(=O)CCC2(c3ccccc3)NC(=O)NC2=O)CC1 (stereo not drawn) [compound 21, 5-[3-[4-(3-chloro-2-methyl-phenyl)piperazin-1-yl]-3-oxo-propyl]-5-phenyl-imidazolidine-2,4-dione]	> 20000 nM	
Cc1ccccc1N1CCN(C(=O)CCC2(c3ccccc3)NC(=O)NC2=O)CC1 (stereo not drawn) [compound 7, 5-[3-[4-(o-tolyl)piperazin-1-yl]-3-oxo-propyl]-5-phenyl-imidazolidine-2,4-dione]	> 16700 nM	
O=C1NC(=O)C(CCC(=O)N2CCN(c3ccc4ccccc4c3)CC2)(c2ccccc2)N1 (stereo not drawn) [compound 9, 5-[3-[4-(2-naphthyl)piperazin-1-yl]-3-oxo-propyl]-5-phenyl-imidazolidine-2,4-dione]	271 nM	
CC(CC1(c2ccccn2)NC(=O)NC1=O)C(=O)N1CCN(c2ccc(F)c(Cl)c2)[C@@H](C)C1 (stereo partly drawn) [compound 245, 5-[3-[(3S)-4-(3-chloro-4-fluoro-phenyl)-3-methyl-piperazin-1-yl]-2-methyl-3-oxo-propyl]-5-(2-pyridyl)imidazolidine-2,4-dione]		IC50 [5]: 2130 nM
Cc1cccc(N2CCN(C(=O)CCC3(C)NC(=O)NC3=O)CC2)c1C (stereo not drawn) [compound 11, 5-[3-[4-(2,3-dimethylphenyl)piperazin-1-yl]-3-oxo-propyl]-5-methyl-imidazolidine-2,4-dione]	> 20000 nM	
Cc1ccccc1N1CCN(C(=O)CCC2(C)NC(=O)NC2=O)CC1 (stereo not drawn) [compound 12, 5-methyl-5-[3-[4-(o-tolyl)piperazin-1-yl]-3-oxo-propyl]imidazolidine-2,4-dione]	> 20000 nM	

SMILES	IC50 [1]	other results
CC1(CCC(=O)N2CCN(c3ccc(Cl)c(F)c3)CC2)NC(=O)NC1=O (stereo not drawn) [compound 49, 5-[3-[4-(4-chloro-3-fluoro-phenyl)piperazin-1-yl]-3-oxo-propyl]-5-methyl-imidazolidine-2,4-dione]	83 nM	
Cc1ccccc1N1CCN(C(=O)CC[C@@]2(c3ccccc3)NC(=O)NC2=O)CC1 [compound 27, (5S)-5-[3-[4-(o-tolyl)piperazin-1-yl]-3-oxo-propyl]-5-phenyl-imidazolidine-2,4-dione]	> 10000 nM	
Cc1c(Cl)cccc1N1CCN(C(=O)CCC2(C)NC(=O)NC2=O)CC1 (stereo not drawn) [compound 18, 5-[3-[4-(3-chloro-2-methyl-phenyl)piperazin-1-yl]-3-oxo-propyl]-5-methyl-imidazolidine-2,4-dione]	> 20000 nM	
O=C1NC(=O)C(CCC(=O)N2CCN(c3ccc4scnc4c3)CC2)(c2ccccc2)N1 (stereo not drawn) [compound 26, 5-[3-[4-(1,3-benzothiazol-5-yl)piperazin-1-yl]-3-oxo-propyl]-5-phenyl-imidazolidine-2,4-dione]	111 nM	
CC1(CCC(=O)N2CCN(c3ccc(F)c(Cl)c3)CC2)NC(=O)NC1=O (stereo not drawn) [compound 52, 5-[3-[4-(3-chloro-4-fluoro-phenyl)piperazin-1-yl]-3-oxo-propyl]-5-methyl-imidazolidine-2,4-dione]	2910 nM	
Cc1ccc(Cl)cc1N1CCN(C(=O)CCC2(C)NC(=O)NC2=O)CC1 (stereo not drawn) [compound 16, 5-[3-[4-(5-chloro-2-methyl-phenyl)piperazin-1-yl]-3-oxo-propyl]-5-methyl-imidazolidine-2,4-dione]	> 16700 nM	
Cc1ccc(Cl)cc1N1CCN(C(=O)CCC2(C(C)C)NC(=O)NC2=O)CC1 (stereo not drawn) [compound 33, 5-[3-[4-(5-chloro-2-methyl-phenyl)piperazin-1-yl]-3-oxo-propyl]-5-isopropyl-imidazolidine-2,4-dione]	> 20000 nM	
O=C1NC(=O)C(CCC(=O)N2CCN(c3cccc(Cl)c3)CC2)(c2cccnc2)N1 (stereo not drawn) [compound 56, 5-[3-[4-(3-chlorophenyl)piperazin-1-yl]-3-oxo-propyl]-5-(3-pyridyl)imidazolidine-2,4-dione]	140 nM	
O=C1NC(=O)C(CCC(=O)N2CCN(c3cccnc3)CC2)(c2ccccc2)N1 (stereo not drawn) [compound 45, 5-[3-oxo-3-[4-(3-pyridyl)piperazin-1-yl]propyl]-5-phenyl-imidazolidine-2,4-dione]	> 4000 nM	
CC(CC1NC(=O)NC1=O)C(=O)N1CCN(c2cc(Cl)cc(Cl)c2)CC1 (stereo not drawn) [compound 219, 5-[3-[4-(3,5-dichlorophenyl)piperazin-1-yl]-2-methyl-3-oxo-propyl]imidazolidine-2,4-dione]		IC50 [5]: 441 nM
CC(CC1NC(=O)NC1=O)C(=O)N1CCN(c2cc(Cl)cc(Cl)c2)CC1 (stereo not drawn) [compound 200, 5-[3-[4-(3,5-dichlorophenyl)piperazin-1-yl]-2-methyl-3-oxo-propyl]imidazolidine-2,4-dione]		IC50 [5]: 1060 nM
Cc1ccc(C)c(N2CCN(C(=O)CCC3(C)NC(=O)NC3=O)CC2)c1 (stereo not drawn) [compound 39, 5-[3-[4-(2,5-dimethylphenyl)piperazin-1-yl]-3-oxo-propyl]-5-methyl-imidazolidine-2,4-dione]	> 20000 nM	
Cc1cc(Cl)ccc1N1CCN(C(=O)CCC2(c3ccccc3)NC(=O)NC2=O)CC1 (stereo not drawn) [compound 13, 5-[3-[4-(4-chloro-2-methyl-phenyl)piperazin-1-yl]-3-oxo-propyl]-5-phenyl-imidazolidine-2,4-dione]	> 20000 nM	
O=C1NC(=O)C(CCC(=O)N2CCN(c3ccc4occc4c3)CC2)(c2ccccc2)N1 (stereo not drawn) [compound 25, 5-[3-[4-(benzofuran-5-yl)piperazin-1-yl]-3-oxo-propyl]-5-phenyl-imidazolidine-2,4-dione]	101 nM	
O=C1NC(=O)C(CCC(=O)N2CCN(c3ccccc3)CC2)(c2ccccc2)N1 (stereo not drawn) [compound 4, 5-[3-oxo-3-(4-phenylpiperazin-1-yl)propyl]-5-phenyl-imidazolidine-2,4-dione]	259 nM	
O=C1NC(=O)C(CCC(=O)N2CCN(c3ccc(Cl)c(F)c3)CC2)(c2ccccc2)N1 (stereo not drawn) [compound 10, 5-[3-[4-(4-chloro-3-fluoro-phenyl)piperazin-1-yl]-3-oxo-propyl]-5-phenyl-imidazolidine-2,4-dione]	26 nM	

Like-named read-outs stand apart in the source and are kept apart here.
